This assay concerns the target T1, soluble human FcRn (shFcRn) (human, UniProt P55899 24-297; P61769 21-119, biotinylated with Sulfo-NHS-LC-Biotin in the ELISA; amine-coupled to a CM5 chip in SPR).
T1 construct: also called biotinylated shFcRn
Briefly: competition ELISA vs human IgG. Here is the method:
The wells were coated with 100 μl/well of 1 μg/ml biotinylated-shFcRn in Buffer A. The plate was sealed and incubated at 37° C. for 2 hours. Afterwards, the plate was washed with 200 μl/well of Buffer B (Buffer B: 100 mM MES pH 6, 150 mM NaCl, 0.5% BSA IgG-free (Jackson ImmunoResearch, West Grove, Pa.), 0.05% Tween-20). […] To allow for mixing, the plate was rocked for 2 minutes, sealed and incubated at 37° C. for 2 hours. […] The plate was covered, incubated for 30 minutes at room temperature and washed 4 times with 200 μl/well of ice-cold buffer B. SureBlue TMB substrate solution (100 μl/well, KPL, Gaithersburg, Md.) was added and the plate was allowed to incubate at room temperature until color developed, which took 5 to 10 minutes. Once color developed, 100 μl/well of TMB stop solution (KPL, Gaithersburg, Md.) was added and the absorbance was measured at 450 nm.
Background: ELISA stands for enzyme-linked immunosorbent assay.

Sequences of proteins named here, by UniProt entry; tags and fusion partners are left off. Residues count along the entry.
UniProt P55899, 24-297 limits assumed, chain 1 of 2: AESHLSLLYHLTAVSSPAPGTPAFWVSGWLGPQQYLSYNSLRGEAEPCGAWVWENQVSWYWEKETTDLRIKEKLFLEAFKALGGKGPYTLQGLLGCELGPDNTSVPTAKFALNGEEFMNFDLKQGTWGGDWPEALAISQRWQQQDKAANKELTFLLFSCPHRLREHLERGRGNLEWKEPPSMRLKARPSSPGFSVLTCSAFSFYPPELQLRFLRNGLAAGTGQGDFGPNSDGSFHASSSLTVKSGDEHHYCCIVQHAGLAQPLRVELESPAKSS

B1: Peptide No. 203 (peptide)
peptide: QRFXTGHFXPLYPCNGP
modifications: Pen4; D-Phe9; disulfide; C-terminal amide
B1 came in with an IC50 of 22 µM.

By IC50 is commonly meant the concentration that inhibits the measured activity by half. Read a low IC50 as greater potency in that assay.

For the origin of these results see patent US8906844B2 (SYNTONIX PHARMACEUTICALS, dated 2014).
